These results are taken from PubChem BioAssay AID485314 (National Center for Advancing Translational Sciences (NCATS), 2010).

This is a selection; strong and weak results do not stand in their true shares. Results filed as inconclusive are left out. The source made the active and inactive calls. Calls come from the whole dose curve; as a rule, active = well fitted inhibition curve with a large enough effect; inconclusive = small, poorly fitted or top-dose-only effect, or another doubt; inactive = no such curve, though single readings can be large or run the other way.
% is set by controls: 0 for no effect and ±100 for the full control effect; potency is the fitted concentration of half-maximal effect.

This assay deals with DNA polymerase beta (Homo sapiens) (UniProt P06746). Nature of the assay: qHTS Assay for Inhibitors of DNA Polymerase Beta. Particulars: Pol beta primer extension/strand displacement, fluorescence kinetic; series mostly up to 114 µM; activity change, negative = inhibition: at the top concentration. The source says: The base excision repair system in human cells is a target for therapeutic modulation of the response to irradiation treatment and DNA-damaging drugs. A key enzyme in this system is the bi-functional DNA polymerase known as DNA polymerase Beta (Pol Beta). The following is a homogeneous kinetic assay to study the primer extension and strand-displacement reaction catalyzed by pol beta.
A stepwise description of the 1536-well assay is shown in next Table. Three microliters of reagents (buffer in column 3 and 4 as negative control and 10 nM Pol beta in columns 1, 2, and 5-48) was dispensed into 1,536-well black solid-bottomed plate. Compounds (23 nL) were transferred via Kalypsys pin tool equipped with 1536-pin array (10 nL slotted pins, V&P Scientific, San Diego, CA). The plates were incubated for 15 min at room temperature, and 1 uL substrate (50 nM final concentration) were added to start the reaction and immediately read at 0 min read on Viewlux reader. The plate were further incubated for 10 min at room temperature, and then read on Viewlux again. Throughout the screen, reagent bottle and all liquid lines were chilled and made light-tight to minimize reagent degradation. All screening operations were performed on a fully integrated robotic system (Kalypsys, San Diego, CA) containing one RX-130 and two RX-90 anthropomorphic robotic arms (Staubli, Duncan, SC). Library plates were screened starting from the lowest and proceeding to the highest concentration, and a double-dipping step of the highest concentration was required to access higher concentrations of compounds. Vehicle-only plates, with DMSO being pin-transferred to the entire column 5-48 compound area, were inserted uniformly at the beginning and the end of each library in order to monitor for and record any shifts in the background, which can be affected by reagent dispensers or loss in enzyme activity overtime. Screening data were corrected, normalized, and concentration-effect relationships were derived by using publicly-available curve fitting algorithms developed in-house (http://ncgc.nih.gov/pub/openhts). A four parameter Hill equation was fitted to the concentration-response data by minimizing the residual error between the modeled and observed responses.
In general terms: qHTS replaces the single test concentration by a dilution series.
Regarding `O=[N+]([O-])c1cc([N+](=O)[O-])c(CCNc2ccccc2)c([N+](=O)[O-])c1`, the “activity change, negative = inhibition” value is inactive: -3.23%. On to `COc1ccc(C2=NCC(CBr)S2)cc1` (stereo not drawn), for which the “activity change, negative = inhibition” value was inactive: 0.629%. Same read-out and setting: with `CCC(C)N(CC(C)C)C(=S)SC(NC(C)=O)C(Cl)(Cl)Cl` (stereo not drawn) the figure was inactive: 13.3%. As for `CCOC(=O)c1ccc(NC(=O)C(C)(CCl)SC)cc1` (stereo not drawn), the “activity change, negative = inhibition” value is inactive: 16.1%. On to `O=C(OC1CN2CCC1CC2)c1cccc([N+](=O)[O-])c1` (stereo not drawn), for which the “activity change, negative = inhibition” value was inactive: 39.6%. On to `O=C(COc1ccccc1)OC1CN2CCC1CC2` (stereo not drawn), for which the “activity change, negative = inhibition” value is inactive: -1.84%. Turning to `O=C(Nc1ccncc1[N+](=O)[O-])c1ccc([N+](=O)[O-])cc1[N+](=O)[O-]`, the “activity change, negative = inhibition” value was inactive: 20%. In the case of `COP1(=S)c2c(C)nn(CCC#N)c2N=C(c2ccc(F)cc2)N1C` (stereo not drawn), the “activity change, negative = inhibition” value is inactive: -20.3%.

As for `Cc1cc(SC(NC=O)C(Cl)(Cl)Cl)ncn1` (stereo not drawn), the “activity change, negative = inhibition” value was inactive: 0.39%. For `CCOC(=O)Nc1cccc([As](=O)(O)O)c1`, the “activity change, negative = inhibition” value was inactive: -19.3%. As to `CCCCOc1ccc(C(=O)NCC2(N3CCCCC3)CCCCC2)cc1OC`, the “activity change, negative = inhibition” value is inactive: -10.1%. Consider `Cc1cc(SC(NC(=O)c2ccccc2)C(Cl)(Cl)Cl)nc(C(C)C)n1` (stereo not drawn), for which the “activity change, negative = inhibition” value is inactive: 1.12%.

With `CCN(CC)C(=S)SC(NC=O)C(Cl)(Cl)Cl` (stereo not drawn), the “activity change, negative = inhibition” value is inactive: 38%. Same read-out and setting: with `CC(C)NC(=O)NP(=O)(Oc1ccccc1)Oc1ccccc1` the figure was inactive: 22.7%; with `O=[N+]([O-])c1cc([N+](=O)[O-])c(-c2ccn[nH]2)s1`, inactive: -13.5%. On to `CC(C)c1ccc(OP(=O)(Nc2ccccn2)Oc2ccccc2F)cc1` (stereo not drawn), for which the “activity change, negative = inhibition” value was inactive: -1.07%. Take `ClCCSc1nnc(-c2cccnc2)o1`: the “activity change, negative = inhibition” value is inactive: 1.67%. Turning to `Cc1ccc2nc3c(c(C)c2c1)CC(C(Cl)Cl)S3` (stereo not drawn), the “activity change, negative = inhibition” value was inactive: -0.36%. With `Cc1ccc(OP(=O)(Nc2ccc([N+](=O)[O-])cn2)Oc2ccc(C)cc2)cc1`, the “activity change, negative = inhibition” value is inactive: -7.49%. Turning to `C[As](=O)(O)c1cccc(C(=O)O)c1`, the “activity change, negative = inhibition” value is inactive: -1.58%.

For `O=[As](O)(c1ccc(O)cc1)c1ccccc1O`, the “activity change, negative = inhibition” value is inactive: 3.84%.

In the case of `COc1ccc(N/C(=N/P(=O)(N2CCOCC2)N2CCOCC2)N2CCOCC2)cc1`, the “activity change, negative = inhibition” value is inactive: -14.9%. As to `COc1ccc2nc(NP(=O)(c3ccccc3)c3ccccc3)sc2c1`, the “activity change, negative = inhibition” value was inactive: 0.276%. Still for that read-out and setting: with `COc1cc(I)ccc1[As](=O)(O)O` the figure was inactive: 4.35%; with `O=C(OC1CN2CCC1CC2)C12CC3CC(CC(C3)C1)C2` (stereo not drawn), inactive: 0.874%; with `Cc1cc(=O)[nH]c(N[N+](=O)[O-])n1`, inactive: -27.3%. In the case of `COc1cc(C2NCCC3(OCCO3)C2(C)C)cc(OC)c1OC` (stereo not drawn), the “activity change, negative = inhibition” value was inactive: 17.2%.

With `CCOP(=O)(Nc1cccc2ccccc12)OCC`, the “activity change, negative = inhibition” value is inactive: 3.35%.

In the case of `CCCOP(=S)(Nc1nc(N)cc(=O)[nH]1)OCCC`, the “activity change, negative = inhibition” value is inactive: 19.3%. Regarding `Cc1ccc(NCCc2c([N+](=O)[O-])cc([N+](=O)[O-])cc2[N+](=O)[O-])cc1`, the “activity change, negative = inhibition” value was inactive: -7.51%.

For `Nc1cccc2c([As](=O)(O)O)cccc12`, the Potency is active: 28.2 µM. Regarding `O=[As](O)(c1cccc(O)c1)c1cccc(O)c1`, the “activity change, negative = inhibition” value is inactive: 23.2%. In the case of `Cc1cccc(OCC(=O)OC2CN3CCC2CC3)c1` (stereo not drawn), the “activity change, negative = inhibition” value was inactive: 3.68%. For the molecule `COc1cc(C(=O)NCC2(N3CCOCC3)CCCCC2)cc(Cl)c1OC(C)C`, the “activity change, negative = inhibition” value was inactive: 28.6%.

Turning to `O=[As](O)(O)c1cccnc1`, the “activity change, negative = inhibition” value was inactive: 35.2%. In the case of `CS(=O)(=O)c1ccc(Cl)c(NC(=O)COC(=O)C(O)(c2ccccc2)c2ccccc2)c1`, the “activity change, negative = inhibition” value was inactive: 1.05%. For the molecule `O=C(OC1CN2CCC1CC2)c1ccc(Cl)cc1` (stereo not drawn), the “activity change, negative = inhibition” value is inactive: -8.5%.

For `CN(C(=O)Cc1ccc(Cl)c(Cl)c1)[C@@H]1CC[C@]2(CCCO2)C[C@H]1N1CCCC1`, the “activity change, negative = inhibition” value was inactive: 25.8% [at 57.1 µM]. `O=[N+]([O-])c1ccc2c(c1)nnn2O`: the “activity change, negative = inhibition” value was inactive: -1.95%.

As to `CN(C(=O)Cc1ccccc1)[C@@H]1CC[C@]2(CCCO2)C[C@H]1N1CCCC1`, the Potency result is “inactive”.

On to `CCOP1(=S)c2c(C)nn(CCC#N)c2N=C(c2ccc(F)cc2)N1C` (stereo not drawn), for which the “activity change, negative = inhibition” value is inactive: -10.3%. On to `NC(=O)Nc1ccc([As](=O)(O)O)cc1`, for which the “activity change, negative = inhibition” value was inactive: -9.53%. As for `Nc1ccccc1[As](=O)(O)c1ccccc1`, the “activity change, negative = inhibition” value was inactive: -7.81%. As to `O=C(O)COc1ccc([As](=O)(O)O)cc1[N+](=O)[O-]`, the “activity change, negative = inhibition” value is inactive: 1.92%.

`CS(=O)(=O)c1cc([N+](=O)[O-])c2no[n+]([O-])c2c1`: the “activity change, negative = inhibition” value was inactive: 22.3%. Still for that read-out and setting: with `CCOP1(=S)c2c(C)nn(CCC#N)c2N=C(c2ccccc2F)N1C` (stereo not drawn) the figure was inactive: 2.67%; with `O=P(Nc1nccs1)(c1ccccc1)c1nc2ccccc2s1` (stereo not drawn), inactive: -9.36%; with `O=P(Nc1nccs1)(Oc1ccccc1)Oc1ccccc1`, inactive: -1.85%. As for `O=P1(Nc2ccc(Br)cn2)COc2ccccc2OC1`, the “activity change, negative = inhibition” value was inactive: 4.27%.

For `Cc1ccc(OCC(=O)OC2CN3CCC2CC3)cc1` (stereo not drawn), the “activity change, negative = inhibition” value is inactive: 14.5%. Take `O=[As](O)(c1cccs1)c1cccs1`: the “activity change, negative = inhibition” value is inactive: 13.4%. Take `Nc1cccc([As](=O)(O)c2ccccc2)c1`: the “activity change, negative = inhibition” value was inactive: 0.0057%. On the same count and under the same terms, then `O=P1(Nc2ncccn2)COc2ccccc2OC1`, with inactive: -14.4%; and `O=C(/C=C/c1ccccc1)OC1CN2CCC1CC2` (stereo not drawn), with inactive: 3%. With `CN(C)C1(CNC(=O)c2ccc(S(C)(=O)=O)cc2)CCCCC1`, the “activity change, negative = inhibition” value is inactive: 20%. Regarding `Cc1nn(-c2ccccc2)c2c1P(=O)(N1CCOCC1)N(C)C(c1ccccc1)=N2` (stereo not drawn), the “activity change, negative = inhibition” value was inactive: 0.681%.

Take `CC1CCC(C(C)C)C(OP(=O)(Nc2ccccn2)c2ccccc2)C1` (stereo not drawn): the “activity change, negative = inhibition” value is inactive: -0.946%. With `Cc1ccc(C(=O)OC2CN3CCC2CC3)cc1` (stereo not drawn), the “activity change, negative = inhibition” value was inactive: 7.97%. The same measure, in the same setting: then `O=[As](O)(c1ccccc1Br)c1ccccc1Br`, with inactive: -18.3%; and `CC(C)/C=N\N=C(\N)N[N+](=O)[O-]`, with inactive: -28.7%. Take `CN(C(=O)Cc1ccc(Cl)c(Cl)c1)[C@@H]1CCCC[C@H]1N1CCCC1`: the Potency entry was “inactive”. For the molecule `Clc1n[nH]nc1-c1nn[nH][15n]1`, the “activity change, negative = inhibition” value is inactive: -1.68%. In the case of `CC(C)(C)C(=O)NC(Sc1ncccn1)C(Cl)(Cl)Cl` (stereo not drawn), the “activity change, negative = inhibition” value was inactive: 87.6%. Still for that read-out and setting: then `CN(CCCl)Cc1cc(Cl)c(NC2=NCCN2)c(Cl)c1`, with inactive: 11.5% [at 57.1 µM]. Consider `CCOP(=O)(Nc1ccc(C)cn1)OCC`, for which the “activity change, negative = inhibition” value is inactive: 15.6%. Turning to `O=P1(Nc2ccccn2)COc2ccccc2OC1`, the “activity change, negative = inhibition” value is inactive: 1.04%. Turning to `CCC1=CC2Cc3nc4ccc(Cl)cc4c(N)c3C(C1)C2` (stereo not drawn), the “activity change, negative = inhibition” value was inactive: 0.0204%. On to `CCOP(=O)(NC(=NC(C)c1ccccc1)NC(C)c1ccccc1)OCC` (stereo not drawn), for which the “activity change, negative = inhibition” value is inactive: 13.8%.
